For this data set the following is noted: 50 µM, human liver microsomes, NADPH, 60 minutes. In general terms: Microsomes from liver hold many membrane-bound enzymes, among them those of drug oxidation.

Structures are written as SMILES. Structures can show the parent of a compound that is named as a salt.

`Cc1cc(C)nc(NC(=S)N2CCN(c3ccc(Cl)cc3C(F)(F)F)CC2)c1` [Compound 41, 4-(4-Chloro-2-(trifluoromethyl)phenyl)-N-(4,6-dimethylpyridin-2-yl)piperazine-1-carbothioamide Trifluoroacetate]: the GSH adducts result is reported as “did not show any GSH adducts”.
As for `COc1ccnc(NC(=S)N2CCN(c3ncc(C(F)(F)F)cc3Cl)CC2)c1` [Compound 55, 4-(3-Chloro-5-(trifluoromethyl)pyridin-2-yl)-N-(4-methoxypyridin-2-yl)piperazine-1-carbothioamide Trifluoroacetate], the GSH adducts entry was “did not show any GSH adducts”.
